Measurements as given in patent US12115222B2, “Compositions and methods for improving the solubility of erectile dysfunction therapeutics” (Villya LLC, priority 2023, dated 2024).

Details: Example 30

O=C(C1CCCCC1)N1CC(=O)N2CCc3ccccc3C2C1 (centres unmarked) [Praziquantel]
appearance in deionized water after the ethanol step (rubusoside:praziquantel 1:1 w/w): not soluble | appearance in deionized water after the ethanol step (rubusoside:praziquantel 2:1 w/w): hazy solution with some particles | appearance in deionized water after the ethanol step (rubusoside:praziquantel 3:1 w/w): slightly hazy solution with no discernable particles | appearance in water after the ethanol step (rubusoside:praziquantel 4:1 w/w): hazy solution | appearance in water after the ethanol step (rubusoside:praziquantel 5:1 w/w): slightly hazy solution with visible particles | appearance in water after the ethanol step (rubusoside:praziquantel 6:1 w/w): slightly hazy solution with no particles present | appearance in water after the ethanol step (rubusoside:praziquantel 7:1 w/w): readily soluble with no particles observed | appearance in deionized, distilled water after the ethanol step (rubusoside:praziquantel 9:1 w/w): readily soluble

Where two headings read alike, the source gives them in different places.
